# Measurements published in paper PMC9617852, “In vitro and in vivo assessment of the antioxidant potential of isoxazole derivatives” (Scientific Reports, 2022).
# Amino acid sequences for entries named in this document (tags omitted). Residues count along the entry.
# UniProt P00591, whole entry: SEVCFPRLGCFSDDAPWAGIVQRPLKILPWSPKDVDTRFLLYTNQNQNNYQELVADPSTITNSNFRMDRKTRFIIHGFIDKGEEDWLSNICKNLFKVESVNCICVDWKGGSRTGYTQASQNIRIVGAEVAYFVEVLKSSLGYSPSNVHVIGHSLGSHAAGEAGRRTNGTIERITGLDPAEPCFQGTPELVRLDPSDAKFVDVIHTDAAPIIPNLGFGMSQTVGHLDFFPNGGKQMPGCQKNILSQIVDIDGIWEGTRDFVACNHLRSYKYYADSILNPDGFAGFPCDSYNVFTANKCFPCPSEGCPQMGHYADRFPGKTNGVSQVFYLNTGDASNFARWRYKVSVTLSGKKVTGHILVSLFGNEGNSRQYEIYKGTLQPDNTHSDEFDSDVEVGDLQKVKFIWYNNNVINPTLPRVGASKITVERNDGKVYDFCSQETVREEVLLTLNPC
# UniProt P00690, 16-511 limits assumed: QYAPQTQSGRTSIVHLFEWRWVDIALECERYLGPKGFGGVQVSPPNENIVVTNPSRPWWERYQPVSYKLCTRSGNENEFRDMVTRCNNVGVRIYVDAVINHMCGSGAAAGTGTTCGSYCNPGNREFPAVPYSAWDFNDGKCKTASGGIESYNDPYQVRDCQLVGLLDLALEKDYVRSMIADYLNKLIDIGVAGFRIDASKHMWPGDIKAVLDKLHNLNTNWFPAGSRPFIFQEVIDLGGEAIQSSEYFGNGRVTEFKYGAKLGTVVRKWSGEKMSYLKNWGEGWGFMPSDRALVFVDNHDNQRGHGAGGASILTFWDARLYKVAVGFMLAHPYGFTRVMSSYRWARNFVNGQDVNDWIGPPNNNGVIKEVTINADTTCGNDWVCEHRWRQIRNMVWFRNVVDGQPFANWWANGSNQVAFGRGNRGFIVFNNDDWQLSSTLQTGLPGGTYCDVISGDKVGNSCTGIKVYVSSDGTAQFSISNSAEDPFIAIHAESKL
# Legend:
# [1] = tested on: Hep3B; conditions: cells shifted to apoptosis; cited from earlier work
# [2] = target: porcine pancreatic lipase (Sus scrofa, UniProt P00591); test: Porcine pancreatic lipase inhibition assay; assay type: biochemical; conditions: substrate p-nitrophenyl butyrate, 37 °C, 410 nm; highest concentration 400 µg/ml
# [3] = target: porcine pancreatic α-amylase (Sus scrofa, UniProt P00690); test: α-Amylase inhibitory assay; assay type: biochemical; conditions: starch substrate, DNSA, 540 nm; highest concentration 500 µg/ml
# [4] = DPPH free radical scavenging assay (in vitro antioxidant activity); conditions: DPPH in methanol, 30 min in the dark at 25 °C, absorbance 517 nm
# [5] = tested on: Hep3B; conditions: Hep3B cancer cell line; cited from earlier work
# [6] = tested on: HepG2; conditions: HepG2 cancer cell line; cited from earlier work
IC50 Lipase [2],IC50 α-Amylase [3],IC50 DPPH [4],SMILES,reduction of the necrosis rate of Hep3B [1],IC50 against Hep3B [5],IC50 against HepG2 [6]
358.18 ± 1.32 µg/mL,> 500 µg/mL,43.85 ± 0.71 µg/mL,COc1cc(NC(=O)c2c(-c3ccc(F)cc3)noc2C)c(OC)cc1Cl,4 folds,8.54 µg/mL,–
303.90 ± 2.2 µg/mL,> 500 µg/mL,5.11 ± 0.91 µg/mL,COc1ccc(NC(=O)c2c(-c3ccc(F)cc3)noc2C)cc1OC,–,7.66 µg/mL,–
> 400 µg/mL,> 500 µg/mL,0.47 ± 0.33 µg/mL,COc1cc(NC(=O)c2c(-c3ccc(F)cc3)noc2C)cc(OC)c1,–,–,–
> 400 µg/mL,> 500 µg/mL,33.39 ± 0.57 µg/mL,Cc1onc(-c2ccc(F)cc2)c1C(=O)Nc1ccccc1,4 folds,5.76 µg/mL,34.64 µg/mL
